Data taken from article PMC4538835 (Nucleic Acids Research, 2015).

T1: MED25 ACID/PTOV domain (residues 391 to 548) (human, UniProt Q71SY5 391-548)
T1 sequence (looked up): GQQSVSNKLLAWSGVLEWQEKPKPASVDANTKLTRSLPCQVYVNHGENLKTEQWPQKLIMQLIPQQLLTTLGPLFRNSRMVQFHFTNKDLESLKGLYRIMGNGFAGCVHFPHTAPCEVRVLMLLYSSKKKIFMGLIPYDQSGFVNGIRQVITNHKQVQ

B1: TAMRA-labelled VP16 H2 peptide (amino acids 453–490) (peptide, UniProt P06492 453-490, looked up)
chain: PGPGFTPHDSAPYGALDMADFEFEQMFTDALGIDEYGG
modifications: TAMRA on the N-terminal free NH2 group
B2: TAMRA-labelled VP16 H1 peptide (amino acids 413–452) (peptide, UniProt P06492 413-452, looked up)
chain: APPTDVSLGDELHLDGEDVAMAHADALDDFDLDMLGDGDS
modifications: TAMRA on the N-terminal free NH2 group

Target: T1, MED25 ACID/PTOV domain (residues 391 to …)
Assay: fluorescence polarisation

Binder	Kd
B1	2000 nM
B2	150 nM
